How the values were obtained:
[1] = molecular target: T1, binding of compound 2B to LFA-1 (Homo sapiens, UniProt P05107+P20701); test: LFA-1/small molecule ELISA, antagonist competition; conditions: read-out: IC50, inhibition of binding of compound 2B to LFA-1, 25 nM compound 2B
[2] = molecular target: T1, binding of compound 2B to LFA-1; test: LFA-1/small molecule ligand binding ELISA; conditions: increasing antagonist concentrations

Amino acid sequences for entries named in this document (tags omitted). Residues count along the entry.
UniProt P05107, 23-769: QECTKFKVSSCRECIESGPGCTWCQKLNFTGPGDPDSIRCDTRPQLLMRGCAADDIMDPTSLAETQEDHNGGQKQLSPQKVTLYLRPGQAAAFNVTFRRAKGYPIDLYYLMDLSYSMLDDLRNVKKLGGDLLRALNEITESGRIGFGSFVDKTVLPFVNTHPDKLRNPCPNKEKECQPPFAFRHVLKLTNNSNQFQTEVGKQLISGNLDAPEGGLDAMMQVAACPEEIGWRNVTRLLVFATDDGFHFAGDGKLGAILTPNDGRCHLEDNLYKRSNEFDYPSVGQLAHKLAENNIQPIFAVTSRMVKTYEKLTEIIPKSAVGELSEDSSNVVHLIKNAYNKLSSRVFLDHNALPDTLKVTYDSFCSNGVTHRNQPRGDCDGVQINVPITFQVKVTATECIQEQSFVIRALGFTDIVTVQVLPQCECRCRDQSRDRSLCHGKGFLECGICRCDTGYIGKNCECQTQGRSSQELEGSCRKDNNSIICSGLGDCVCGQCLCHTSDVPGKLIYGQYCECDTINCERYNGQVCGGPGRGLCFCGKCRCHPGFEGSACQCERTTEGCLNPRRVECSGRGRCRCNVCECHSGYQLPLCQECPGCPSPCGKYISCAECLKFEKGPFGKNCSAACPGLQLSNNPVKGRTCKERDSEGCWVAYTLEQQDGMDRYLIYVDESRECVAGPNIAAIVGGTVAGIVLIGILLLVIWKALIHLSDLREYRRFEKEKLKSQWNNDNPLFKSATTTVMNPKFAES
UniProt P20701, 26-1170: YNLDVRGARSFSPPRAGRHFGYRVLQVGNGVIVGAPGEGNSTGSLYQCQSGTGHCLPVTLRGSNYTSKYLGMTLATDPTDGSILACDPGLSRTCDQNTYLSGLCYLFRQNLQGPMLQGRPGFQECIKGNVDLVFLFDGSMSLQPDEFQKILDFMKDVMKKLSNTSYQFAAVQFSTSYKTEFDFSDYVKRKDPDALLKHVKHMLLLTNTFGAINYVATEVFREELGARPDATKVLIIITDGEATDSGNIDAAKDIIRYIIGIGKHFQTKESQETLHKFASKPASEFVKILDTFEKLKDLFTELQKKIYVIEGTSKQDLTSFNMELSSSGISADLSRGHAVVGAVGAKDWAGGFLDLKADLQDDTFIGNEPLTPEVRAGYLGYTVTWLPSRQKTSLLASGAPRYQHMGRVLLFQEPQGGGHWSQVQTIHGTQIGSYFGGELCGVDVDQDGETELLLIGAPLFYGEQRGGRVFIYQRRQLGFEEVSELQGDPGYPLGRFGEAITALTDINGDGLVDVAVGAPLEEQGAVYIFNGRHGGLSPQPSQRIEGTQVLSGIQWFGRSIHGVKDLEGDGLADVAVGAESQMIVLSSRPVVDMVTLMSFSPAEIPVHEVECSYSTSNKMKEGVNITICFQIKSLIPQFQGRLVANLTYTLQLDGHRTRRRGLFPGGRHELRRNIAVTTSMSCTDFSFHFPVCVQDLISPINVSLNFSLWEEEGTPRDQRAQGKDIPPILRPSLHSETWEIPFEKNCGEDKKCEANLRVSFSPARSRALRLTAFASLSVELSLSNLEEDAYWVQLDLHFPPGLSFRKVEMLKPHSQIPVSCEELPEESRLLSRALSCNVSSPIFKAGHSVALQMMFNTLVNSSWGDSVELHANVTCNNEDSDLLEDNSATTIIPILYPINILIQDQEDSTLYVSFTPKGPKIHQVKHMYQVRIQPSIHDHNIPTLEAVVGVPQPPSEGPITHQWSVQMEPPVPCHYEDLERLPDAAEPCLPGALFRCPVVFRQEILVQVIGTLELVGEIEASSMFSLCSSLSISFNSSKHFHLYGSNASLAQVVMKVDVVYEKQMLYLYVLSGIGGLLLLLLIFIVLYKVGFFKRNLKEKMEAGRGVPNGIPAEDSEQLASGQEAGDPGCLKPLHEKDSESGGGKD

- IC50 [1]: 1200 nM
- Effect on compound 2B binding curves [2]: also showed a similar effect
B1: sICAM-1: soluble ICAM-1, molecular form of the natural ligand of LFA-1 (protein)
chain: QTSVSPSKVILPRGGSVLVTCSTSCDQPKLLGIETPLPKKELLLPGNNRKVYELSNVQEDSQPMCYSNCPDGQSTAKTFLTVYWTPERVELAPLPSWQPVGKNLTLRCQVEGGAPRANLTVVLLRGEKELKREPAVGEPAEVTTTVLVRRDHHGANFSCRTELDLRPQGLELFENTSAPYQLQTFVLPATPPQLVSPRVLEVDTQGTVVCSLDGLFPVSEAQVHLALGDQRLNPTVTYGNDSFSAKASVSVTAEDEGTQRLTCAVILGNQSQETLQTVTIYSFPAPNVILTKPEVSEGTEVTVKCEAHPRAKVTLNGVPAQPLGPRAQLLLKATPEDNGRSFSCSATLEVAGQLIHKNQTRELRVLYGPRLDERDCPGNWTWPENSQQTPMCQAWGNPLPELKCLKDGTFPLPIGESVTVTRDLEGTYLCRARSTQGEVTRKVTVNVLSPRYE
